Reference: publication PMC3631511

Columns and labels:
[1] = biological target: ΔE22-Aβ_(1-39) (Japanese mutant Aβ); assay: sedimentation with reverse phase HPLC of the supernatant
[2] = biological target: wild-type Aβ_(1-40); assay: critical concentration

Row | k (first-order rate constant of the loss of soluble peptide in the 1:1 mixture) [1] [h⁻¹] | critical concentration (Cr) [2] [µM] | Substance
1 | 0.08 |  | wild-type Aβ_(1-40) (peptide)
2 |  | 2.89 | wild-type Aβ_(1-40) (peptide; other documents disagree on this pair)
